Source: patent US20220380431A1, “GLYCOPEPTIDE ANALOGS OF SECRETIN FAMILY PEPTIDES” (ARIZONA BOARD OF REGENTS ON BEHALF OF THE UNIVERSITY OF …, priority 2017, published 2022)

Protein sequences, listed by entry. Tags and fused reporters are not part of them. Residues count along the entry.
UniProt P32241, 31-457: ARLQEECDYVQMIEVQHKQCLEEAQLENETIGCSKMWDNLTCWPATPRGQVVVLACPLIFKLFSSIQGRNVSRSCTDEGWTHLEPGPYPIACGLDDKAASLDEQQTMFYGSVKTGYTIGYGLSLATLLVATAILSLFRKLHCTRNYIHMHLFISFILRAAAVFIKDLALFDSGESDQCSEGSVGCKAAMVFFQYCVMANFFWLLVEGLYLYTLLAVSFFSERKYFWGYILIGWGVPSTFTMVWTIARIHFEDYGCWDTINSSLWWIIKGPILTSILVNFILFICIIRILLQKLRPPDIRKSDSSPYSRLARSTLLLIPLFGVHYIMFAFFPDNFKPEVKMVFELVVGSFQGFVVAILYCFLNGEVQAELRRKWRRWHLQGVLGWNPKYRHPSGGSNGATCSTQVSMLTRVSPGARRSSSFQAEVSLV

Key:
Format in all cases: cell-based
VPAC2 = biological target: T1, VPAC2 (Homo sapiens, UniProt P41587); test: Assay of peptides at PAC and VPAC receptors: VPAC2 (EC50/EMax)
T1 sequence (P41587 24-438): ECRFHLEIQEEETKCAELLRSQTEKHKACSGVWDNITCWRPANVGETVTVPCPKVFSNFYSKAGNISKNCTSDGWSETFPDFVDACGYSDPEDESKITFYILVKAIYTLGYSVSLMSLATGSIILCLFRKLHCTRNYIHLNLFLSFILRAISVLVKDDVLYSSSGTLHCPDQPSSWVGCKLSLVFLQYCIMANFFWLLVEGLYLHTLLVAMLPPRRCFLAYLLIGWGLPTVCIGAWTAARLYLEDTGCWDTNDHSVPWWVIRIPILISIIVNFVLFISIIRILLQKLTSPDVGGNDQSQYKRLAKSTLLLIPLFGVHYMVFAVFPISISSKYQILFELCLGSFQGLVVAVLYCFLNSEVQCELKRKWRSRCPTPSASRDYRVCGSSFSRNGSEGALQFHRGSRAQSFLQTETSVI

VPAC1 = VPAC1 (Homo sapiens, UniProt P32241); test: Assay of peptides at PAC and VPAC receptors: VPAC1 (EC50/EMax)
PAC1 = biological target: T2, PAC1 (Homo sapiens, UniProt P41586); test: Assay of peptides at PAC and VPAC receptors: PAC1 (EC50/EMax)
T2 sequence (P41586 21-468): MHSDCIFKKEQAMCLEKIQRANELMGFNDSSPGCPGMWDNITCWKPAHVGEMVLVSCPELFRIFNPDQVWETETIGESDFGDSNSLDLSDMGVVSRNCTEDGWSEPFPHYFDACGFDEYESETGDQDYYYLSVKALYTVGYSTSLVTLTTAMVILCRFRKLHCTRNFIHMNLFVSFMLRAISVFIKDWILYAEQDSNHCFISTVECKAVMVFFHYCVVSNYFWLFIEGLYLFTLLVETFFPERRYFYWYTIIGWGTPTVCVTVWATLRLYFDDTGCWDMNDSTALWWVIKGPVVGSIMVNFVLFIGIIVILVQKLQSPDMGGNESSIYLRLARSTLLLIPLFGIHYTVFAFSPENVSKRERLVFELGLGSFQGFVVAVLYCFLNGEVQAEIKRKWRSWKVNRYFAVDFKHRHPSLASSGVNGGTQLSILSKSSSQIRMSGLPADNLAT

SMILES | EC50 (VPAC2) | Emax (VPAC2) | EC50 (VPAC1) | Emax (VPAC1) | EC50 (PAC1) | Emax (PAC1)
CCC[C@H](NC(=O)[C@H](CCC(N)=O)NC(=O)[C@H](CCCCN)NC(=O)[C@H](CCCNC(=N)N)NC(=O)[C@H](Cc1ccc(O)cc1)NC(=O)[C@H](CCCNC(=N)N)NC(=O)[C@H](CO)NC(=O)[C@H](Cc1ccc(O)cc1)NC(=O)[C@H](CO)NC(=O)[C@H](CC(=O)O)NC(=O)[C@@H](NC(=O)[C@H](Cc1ccccc1)NC(=O)[C@@H](NC(=O)CNC(=O)[C@H](CC(=O)O)NC(=O)[C@@H](CO)NC(=O)[C@@H](N)Cc1c[nH]cn1)[C@@H](C)CC)[C@@H](C)O)C(=O)N[C@@H](C)C(=O)N[C@H](C(=O)N[C@@H](CCCCN)C(=O)N[C@@H](CCCCN)C(=O)N[C@@H](Cc1ccc(O)cc1)C(=O)N[C@@H](CC(C)C)C(=O)N[C@@H](C)C(=O)N[C@@H](C)C(=O)N[C@H](C(=O)N[C@@H](CO[C@@H]1O[C@H](CO)[C@@H](O)[C@H](O)[C@H]1O)C(N)=O)C(C)C)C(C)C [CRA3001] | 654 nM | 107% | 4.8 nM | 90% | 54.5 nM | 86%
CCC[C@H](NC(=O)[C@H](CCC(N)=O)NC(=O)[C@H](CCCCN)NC(=O)[C@H](CCCNC(=N)N)NC(=O)[C@H](Cc1ccc(O)cc1)NC(=O)[C@H](CCCNC(=N)N)NC(=O)[C@H](CO)NC(=O)[C@H](Cc1ccc(O)cc1)NC(=O)[C@H](CO)NC(=O)[C@H](CC(=O)O)NC(=O)[C@@H](NC(=O)[C@H](Cc1ccccc1)NC(=O)[C@@H](NC(=O)CNC(=O)[C@H](CC(=O)O)NC(=O)[C@@H](CO)NC(=O)[C@@H](N)Cc1c[nH]cn1)[C@@H](C)CC)[C@@H](C)O)C(=O)N[C@@H](C)C(=O)N[C@H](C(=O)N[C@@H](CCCCN)C(=O)N[C@@H](CCCCN)C(=O)N[C@@H](Cc1ccc(O)cc1)C(=O)N[C@@H](CC(C)C)C(=O)N[C@@H](C)C(=O)N[C@@H](C)C(=O)N[C@H](C(=O)N[C@@H](CC(C)C)C(=O)N[C@@H](CO[C@@H]1O[C@H](CO)[C@@H](O)[C@H](O)[C@H]1O)C(N)=O)C(C)C)C(C)C [CRA3000] | 241 nM | 104% | 1.3 nM | 90% | 25.5 nM | 85%
CCC[C@H](NC(=O)[C@H](CCC(N)=O)NC(=O)[C@H](CCCCN)NC(=O)[C@H](CCCNC(=N)N)NC(=O)[C@H](Cc1ccc(O)cc1)NC(=O)[C@H](CCCNC(=N)N)NC(=O)[C@H](CO)NC(=O)[C@H](Cc1ccc(O)cc1)NC(=O)[C@H](CO)NC(=O)[C@H](CC(=O)O)NC(=O)[C@H](C)NC(=O)[C@H](Cc1ccccc1)NC(=O)[C@@H](NC(=O)CNC(=O)[C@H](CC(=O)O)NC(=O)[C@@H](CO)NC(=O)[C@@H](N)Cc1c[nH]cn1)[C@@H](C)CC)C(=O)N[C@@H](C)C(=O)N[C@H](C(=O)N[C@@H](CCCCN)C(=O)N[C@@H](CCCCN)C(=O)N[C@@H](Cc1ccc(O)cc1)C(=O)N[C@@H](CC(C)C)C(=O)N[C@@H](C)C(=O)N[C@@H](C)C(=O)N[C@H](C(=O)N[C@@H](CC(C)C)C(=O)N[C@@H](CO[C@@H]1O[C@H](CO)[C@@H](O)[C@H](O)[C@H]1O)C(N)=O)C(C)C)C(C)C [CRA3003] |  | -42% | 78.8 nM | 93% |  | -71%
